Results published in ChEMBL document CHEMBL1123524, “Aminoglycoside antibiotics. 6. Chemical reactions of aminoglycosides with disodium carbenicillin” (1986).

Columns and labels:
Format in all cases: functional
Pseudomonas aeruginosa [1] = assay: Antibacterial activity expressed as MIC value was determined on Pseudomonas aeruginosa A-20653 organism
Enterobacter cloacae [2] = assay: Antibacterial activity expressed as MIC value was determined on Enterobacter cloacae A-21136 organism
Escherichia coli [3] = assay: Antibacterial activity expressed as MIC value was determined on Escherichia coli A-22356 organism
Escherichia coli [4] = assay: Antibacterial activity expressed as MIC value was determined on Escherichia coli A-20665 organism
Enterobacter cloacae [5] = assay: Antibacterial activity expressed as MIC value was determined on Enterobacter cloacae A-20364 organism
Pseudomonas aeruginosa [6] = assay: Antibacterial activity expressed as MIC value was determined on Pseudomonas aeruginosa A-21508 organism
Enterobacter cloacae [7] = assay: Antibacterial activity expressed as MIC value was determined on Enterobacter cloacae A-9656 organism
Enterobacter cloacae [8] = assay: Antibacterial activity expressed as MIC value was determined on Enterobacter cloacae A-21006 organism

Measured: MIC

GENTAMICIN
2 µg/mL: Enterobacter cloacae [2]
0.5 µg/mL: all other assays above
